Yeast mating assay 2: variants of the scFv Ab-91

Data: MIT Lincoln Laboratory AlphaSeq set, Engelhart et al. 2022, doi:10.1038/s41597-022-01779-4, as distributed in FLAb.

All variants were tested on one target, the spike HR2 peptide PDVDLGDISGINAS (SARS-CoV-2).

Parent: Ab-91, a human scFv built as VL, the linker GGGGSGGGGSGGGGS, VH. Only the CDRs of the heavy chain vary.
VL: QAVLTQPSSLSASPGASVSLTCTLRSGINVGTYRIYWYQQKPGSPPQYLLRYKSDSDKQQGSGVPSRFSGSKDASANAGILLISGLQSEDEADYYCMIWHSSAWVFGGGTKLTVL
VH: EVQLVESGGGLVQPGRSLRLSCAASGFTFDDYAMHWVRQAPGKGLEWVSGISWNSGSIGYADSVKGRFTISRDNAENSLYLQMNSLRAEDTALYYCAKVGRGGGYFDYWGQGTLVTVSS

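The library (AAYL51) carries one to three amino acid substitutions per variant, with no insertions or deletions. The scFvs were displayed on barcoded MATa yeast, the peptide on MATalpha yeast. Pairs that bind mate more often; barcode pairs of the diploids are counted by sequencing. Read counts were normalised to the haploid input and turned into Kd by a linear fit to BCL2-family pairs of known affinity, for each replicate. Mating was done three times.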

Each variant is given by its three heavy chain CDRs, as the data file delimits them; those of the parent are GFTFDDYAMH, GISWNSGSIGYADSVK, VGRGGGYFDY.
This list gathers variants with a substitution at G104 (VH, numbered from residue 1).
The read-out is the apparent dissociation constant on a log10 scale (nM): the lower, the stronger.
The mean shown is taken over the replicates in which the pair was detected.
Where no diploid with the target was found in any replicate, the entry reads "nd": below detection, most likely a poor binder, though not proof of it.
As a blank, each scFv also met three strains without target: over library AAYL51, 21% of these pairings were detected, typically at 4.54 and seldom below 3.26. For each scFv, signals with the empty controls are counted beside the result.

With GFAFDDYAMH / GISWNSGSIGYADSVK / VVRGGIYFDY the result was nd (0 of 3 replicates; controls 0 of 9). With IFTFDDYAMY / GISWNSGSIGYADSVK / VGRGGDYFDY the result was 4.74 (1 of 3 replicates; controls 3 of 9). The variant GFTFDDYAMH / GISWNSGSIGYADSVK / VGREGSYFDY gave 4.30 (3 of 3 replicates; controls 3 of 9). With GFTFDDMAMH / GISWNSGSIGYALSVK / VGRGGIYFDY the result was nd (0 of 3 replicates; controls 1 of 9). The variant GFTYDDYAMH / GISTNSGSIGYADSVK / VGRGGNYFDY showed 4.65 (2 of 3 replicates; controls 7 of 9). With GFTFDDVAMH / GISWDSGSIGYADSVK / VGRGGSYFDY the result was 0.58 (3 of 3 replicates; controls 7 of 9). With GFTFDDYAMH / GISWNSGSIGYADSVM / VGRGGRYFDY the result was 3.73 (2 of 3 replicates; controls 1 of 9).

For GFTFDDYAMH / GISWLSGSIGYADLVK / VGRGGHYFDY, the assay gave nd (0 of 3 replicates; controls 1 of 9). With GFTFDDYSMH / GISWNSGSIGYADSVK / SGRGGMYFDY the result was 5.12 (1 of 3 replicates; controls 1 of 9). The variant GFTFDDYAMH / GISWNSGSIGYAISVK / VGRGGWSFDY showed 1.91 (3 of 3 replicates; controls 0 of 9). The variant GFTFDDYAMH / GISNNSGSIKYADSVK / VGRGGTYFDY gave 2.80 (1 of 3 replicates; controls 0 of 9). The variant GFTFDDYAMH / GISWNSGSIGYADSVK / VGRGGKYFDY gave 2.24 (1 of 3 replicates; controls 0 of 9). With GFTFDDYAMH / GISWNSGSIGNADSVK / VGQGGCYFDY the result was 4.59 (1 of 3 replicates; controls 0 of 9). For GFTFDDYAMH / KISWNSGSIGYADSVK / VGRGLEYFDY, the assay gave 4.16 (1 of 3 replicates; controls 2 of 9).

For GFTFDDYAKH / GISWNSGSIGHADSVK / VGRGGSYFDY, the assay gave nd (0 of 3 replicates; controls 0 of 9). The variant GFTFDDYAMH / GIKWNSPSIGYADSVK / VGRGGIYFDY gave 4.80 (2 of 3 replicates; controls 1 of 9). The variant GFTFDDYAMH / GISWNSTSIGYADSCK / VGRGGEYFDY showed 5.01 (2 of 3 replicates; controls 4 of 9). The variant GFTFDDYALH / GISWNSGSIGYADSVK / VGRGGVYFDY showed nd (0 of 3 replicates; controls 0 of 9). The variant GSTFDDYAMH / GISWNSGSIGYADSVK / VGRGGKYFDY gave 5.94 (1 of 3 replicates; controls 2 of 9). The variant GFTFDDYAMH / GISWRSFSIGYADSVK / VGRGGEYFDY showed 4.51 (1 of 3 replicates; controls 3 of 9). For GFTFDDYAMH / GISWNSGSIGYADSCK / VGRGGCYFDY, the assay gave 2.77 (3 of 3 replicates; controls 5 of 9).

For AFTFDDYAMH / GISWNSGSIGYADSVK / VGRGGCYFDQ, the assay gave nd (0 of 3 replicates; controls 1 of 9). The variant GFTFDDYAMH / GISWNSGSIGYADTVK / VGRGGRYFDE gave 2.27 (3 of 3 replicates; controls 7 of 9). For GFLFDDYAMH / GISWNSGSIGYADSVK / VGRGGTYQDY, the assay gave nd (0 of 3 replicates; controls 1 of 9). The variant GFTFDDYAMH / GISWNWGSIGYADSVE / VGRGGDYFDY showed nd (0 of 3 replicates; controls 1 of 9). The variant GFTFDDYAHH / GISWNSGSIGYADSVK / VGRGGAYFDY gave nd (0 of 3 replicates; controls 2 of 9). For GFTFDDYAMH / GISWNSGSIGYADSVK / VGRGGNYFFY, the assay gave 1.76 (3 of 3 replicates; controls 4 of 9). The variant GQTFDDYAMH / GISWNSGSIGYADSQK / VGRGGQYFDY showed nd (0 of 3 replicates; controls 0 of 9).

The variant GFTFDDYAMH / GISWNSGSDGYADSVK / VGCGGCYFDY showed 4.27 (1 of 3 replicates; controls 0 of 9). For GFTFDDYAMH / GFSWNSGSIGYADSVK / CGRGGEYFDY, the assay gave nd (0 of 3 replicates; controls 0 of 9). The variant GFTFDDYAMH / GISWNSGSIGYADSVK / GGRGGKYKDY showed 1.75 (3 of 3 replicates; controls 4 of 9). For GFTFDDHAMH / GISWNSGSIGYADVVK / VGRGGKYFDY, the assay gave 5.18 (1 of 3 replicates; controls 2 of 9). For GFTFDDYAMG / GIYWNSGSIGYADSVK / VGRGGPYFDY, the assay gave 5.41 (1 of 3 replicates; controls 0 of 9). The variant GFTFDDYAMH / GISWNSGSQGYADSVK / VGRGGWYYDY showed 1.87 (3 of 3 replicates; controls 7 of 9). The variant GFTFDDYAMH / GISWNSGSIGYADSVA / VGRGGNYFDA showed 2.85 (2 of 3 replicates; controls 0 of 9).

For GFTFFDYASH / GISWNSGSIGYADSVK / VGRGGCYFDY, the assay gave nd (0 of 3 replicates; controls 0 of 9). For GFTFDDYAMH / GISWNSGSRGYCDSVK / VGRGGIYFDY, the assay gave nd (0 of 3 replicates; controls 0 of 9).

The first 6 entries again:

GFAFDDYAMH / GISWNSGSIGYADSVK / VVRGGIYFDY: nd (0 of 3 replicates; controls 0 of 9).
IFTFDDYAMY / GISWNSGSIGYADSVK / VGRGGDYFDY: 4.74 (1 of 3 replicates; controls 3 of 9).
GFTFDDYAMH / GISWNSGSIGYADSVK / VGREGSYFDY: 4.30 (3 of 3 replicates; controls 3 of 9).
GFTFDDMAMH / GISWNSGSIGYALSVK / VGRGGIYFDY: nd (0 of 3 replicates; controls 1 of 9).
GFTYDDYAMH / GISTNSGSIGYADSVK / VGRGGNYFDY: 4.65 (2 of 3 replicates; controls 7 of 9).
GFTFDDVAMH / GISWDSGSIGYADSVK / VGRGGSYFDY: 0.58 (3 of 3 replicates; controls 7 of 9).